Article PMC12196810, “A Dual Bioassay for Evaluation of Embryotoxicity and Acute Toxicity of Common Solvents and Surfactants in Artemia salina” (Toxics, 2025)

Tested on: Artemia salina nauplii
Test: Brine shrimp lethality test
Conditions: 24 and 48 h, 0.05–5% (w/v)

sodium xylenesulfonate [SXS]
toxicity in the lethality test, in words: highly toxic
